The record followed here is patent publication US12233115B2, “Long-acting parathyroid hormone” (Extend Biosciences, Inc., priority 2022, dated 2025).

For this experiment, the system named is Thyroparathyroidectomized (TPTx) rats. Put plainly: 28-day pharmacodynamic study in thyroparathyroidectomized (TPTx) rats. As to conditions: 10 nmol/kg SC daily, Days 12, 27, relative to TPTx/vehicle. The format is in vivo, rat. The text has this:
28-day Pharmacodynamic Study of EXT607 in TPTx Rats. Thyroparathyroidectomized (TPTx) rats are a model for hypoparathyroidism. To produce TPTx rats, the thyroid and parathyroid glands were surgically resected and the rats were given L-thyroxine to compensate for the loss of their thyroid. Due to the absence of PTH, TPTx rats had lower levels of serum calcium and higher levels of serum phosphate.
Each group consisted of 10 female rats split into two cohorts of 5 animals for blood sampling purposes. On days 1, 12, and 27, blood (˜0.2 ml) was collected into serum separation tubes at t=0 (pre-dose), 2, 6, 10, and 24 h. The samples were processed into serum by standard methods and analyzed for serum total calcium and phosphate.
Calcium levels at 3 and 10 nmol/kg (20 and 60 μg/kg) were at or just below the normal range of calcium levels for healthy animals. […] For each timepoint, the percent increase in serum calcium relative to the TPTx vehicle control group (Group 2) was determined and daily averages were calculated (Table 9B). Over the three days sampled (Days 1, 12, and 27), […] increased serum calcium an average of 17, 28, and 37% at 1, 3, and 10 nmol/kg, respectively.
At each timepoint, the percent decrease in serum phosphate relative to the TPTx vehicle control group (Group 2) was determined, and daily averages were calculated (Table 9C).

Consider `CC[C@H](C)[C@H](NC(=O)[C@H](CCC(=O)O)NC(=O)[C@H](CO)NC(=O)[C@@H](NC(=O)[C@@H](N)CO)C(C)C)C(=O)N[C@@H](CCC(N)=O)C(=O)N[C@@H](CC(C)C)C(=O)N[C@@H](CCSC)C(=O)N[C@@H](Cc1c[nH]cn1)C(=O)N[C@@H](CC(N)=O)C(=O)N[C@@H](CC(C)C)C(=O)NCC(=O)N[C@@H](CCCCN)C(=O)N[C@@H](Cc1c[nH]cn1)C(=O)N[C@@H](CC(C)C)C(=O)N[C@@H](CC(N)=O)C(=O)N[C@@H](CO)C(=O)N[C@@H](CCSC)C(=O)N[C@@H](CCC(=O)O)C(=O)N[C@@H](CCCNC(=N)N)C(=O)N[C@H](C(=O)N[C@@H](CCC(=O)O)C(=O)N[C@@H](Cc1c[nH]c2ccccc12)C(=O)N[C@@H](CC(C)C)C(=O)N[C@@H](CCCNC(=N)N)C(=O)N[C@@H](CCCCN)C(=O)N[C@@H](CCCCN)C(=O)N[C@@H](CC(C)C)C(=O)N[C@@H](CCC(N)=O)C(=O)N[C@@H](CC(=O)O)C(=O)N[C@H](C(=O)N[C@@H](Cc1c[nH]cn1)C(=O)N[C@@H](CC(N)=O)C(=O)N[C@@H](Cc1ccccc1)C(=O)O)C(C)C)C(C)C` [PTH(1-34)], for which the “% Decrease in Serum Phosphate, Combined” value came to 11%.
